Assay results: US5023271A, “Pharmaceutical microemulsions” (priority 1985, dated 1991)

Experiment: Stability of tocopherol acetate in human serum
Conditions: heparin treated human serum

CC(=O)Oc1c(C)c(C)c2c(c1C)CCC(C)(CCC[C@H](C)CCC[C@H](C)CCCC(C)C)O2 (stereo partly drawn) [tocopherol acetate, α-tocopherol (dl) acetate]
ratio of α-tocopherol to tocopherol acetate / hydrolysis: The results were the same
